Molecular target: Lysophosphatidic acid receptor 2 (Homo sapiens, UniProt Q9HBW0)

By UniProt entry, the sequences of proteins in these tests, tags left out.
UniProt Q9HBW0, whole entry: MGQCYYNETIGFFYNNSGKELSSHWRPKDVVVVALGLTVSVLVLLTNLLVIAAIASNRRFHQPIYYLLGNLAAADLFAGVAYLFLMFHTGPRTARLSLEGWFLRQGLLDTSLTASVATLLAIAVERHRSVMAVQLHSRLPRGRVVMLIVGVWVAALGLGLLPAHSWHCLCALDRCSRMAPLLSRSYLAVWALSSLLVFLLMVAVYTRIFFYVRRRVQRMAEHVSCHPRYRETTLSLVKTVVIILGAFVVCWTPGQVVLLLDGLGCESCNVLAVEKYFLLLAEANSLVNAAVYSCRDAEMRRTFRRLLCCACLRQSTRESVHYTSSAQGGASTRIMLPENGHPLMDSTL

IC50 [nM]	Structure (SMILES)
129	COC(=O)c1cccc2c(N[C@@H](C)CN3CCN(S(=O)(=O)c4ccc(Cl)c(Cl)c4)CC3)ncnc12
257	COC(=O)Nc1nc(C)c(S(=O)(=O)N2CCN(C[C@H](C)Nc3ncnc4c(C(=O)N(C)C)cccc34)CC2)s1
0.575	COC(=O)Nc1nc(C)c(S(=O)(=O)N2CCN(C[C@H](C)Nc3ncnc4c(-c5ccc(CN6CCCC6)cc5)cccc34)CC2)s1

From ChEMBL document CHEMBL5385906, “Discovery of a Potent, Selective, and Orally Bioavailable Tool Compound for Probing the Role of Lysophosphatidic Acid Type 2 Receptor Antagonists in Fibrotic Disorders” (J Med Chem, 2023)
